Assay results published in US5494909A, “Substituted oxazinoisoquinoline derivatives, pharmaceutical compositions containing them and process for preparing same” (priority 1991, dated 1996).

Tested on: Veratrine-stimulated Ca uptake, synaptosomes prepared from rat brain
Type: biochemical, rat (Wistar)
Details: veratrine 20 μmoles/l, pH 7.4, 37° C., 20 seconds, read-out: Inhibition of Veratrine-stimulated Ca uptake IC50

COCCOC(=O)C1=C(C)NC(C)=C(C(=O)OC(C)C)C1c1cccc([N+](=O)[O-])c1 (stereo not shown) [nimodipine, isopropyl 2methoxyethyl 1,4dihydro-2,6-dimethyl-4-(mnitrophenyl)-3,5-pyridinedicarboxylate]
IC50: 6.7 µM
